We go through 2 compounds from ChEMBL document CHEMBL1133734, “Synthesis and evaluation of nitroheterocyclic phosphoramidates as hypoxia-selective alkylating agents” (2000).

Assay [1] relates to HT-29. Put plainly: Tested in vitro for cytotoxicity against HT-29 human colon carcinoma cells under hypoxic condition.
A further assay has as its system MCF7-CP. The experiment in a line: Tested in vitro for cytotoxicity against MCF-7/CP 4-hydroperoxycyclophosphamide-resistant human breast cancer cells.
The test system of the next assay is B16. The experiment in a line: Tested in vitro for cytotoxicity against B16 murine melanoma cells. Type of assay: functional, Mus musculus. Put shortly:
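Clonogenic assay. Cells were suspended in unsupplemented medium at 2-30 000 cells/mL and exposed 2 h at 37 °C, 5% CO2 to 1-400 µM drug (final), with the top dose chosen to give >99% kill. Drug stocks were made in medium or ethanol. After washing, cells were plated at 2-3 dilutions. Colonies of ≥50 cells were stained with crystal violet at 8 days (B16) or 14 days (MCF-7). LC99 was taken by linear regression of log surviving fraction vs concentration.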

Another assay relates to MCF7. Put plainly: Tested in vitro for cytotoxicity against MCF-7/WT wild-type human breast cancer cells.
The test system of assay [2] is HT-29. The experiment in a line: Tested in vitro for cytotoxicity against HT-29 human colon carcinoma cells under aerobic condition.

With `NP(=O)(OCc1ccc([N+](=O)[O-])s1)N(CCBr)CCBr` (stereo not given), the LC99 was determined as 0.18 µM in the assay with HT-29 [1]; 4.1 µM in the assay on MCF7-CP; 1.8 µM in the assay on B16; 6.1 µM in the assay on MCF7; 1.4 µM in the assay on HT-29 [2].
The corresponding values for `NP(=O)(OCc1ccc([N+](=O)[O-])o1)N(CCBr)CCBr` (stereo not given) are 0.22 µM, 2.9 µM, 2 µM, 4.5 µM and 1.8 µM.
